From the supplement of paper PMC11451515

Tests used:
[1] = test system: NOMO1; assay: cell viability relative to DMSO control; higher = less cytotoxic; conditions: HPLM + 10% dialyzed FBS, 48 h
Summary of the method: (§1)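 Library compounds in DMSO were pin-dosed into 1536-well plates (5 μl) holding NOMO1 or SEM (500 cells/well) or P12-Ichikawa (1000 cells/well) leukemia cells, across an 11-point threefold series of 47 μM to 0.79 nM. Each cell line had been adapted for at least four passages in each medium. CellTiter-Glo One luminescence was read after 48 h at 37°C. Viability is the per-plate percentage relative to DMSO wells, with cell-free wells as background.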

[2] = test system: P12-Ichikawa; assay: as above; conditions: HPLM + 10% dialyzed FBS, 48 h
Summary of the method: as §1

[3] = test system: SEM cells; assay: as above; conditions: 48 h
Summary of the method: as §1

[4] = test system: P12-Ichikawa; assay: AUC of viability dose-response curve (% viability x log10 dose units); higher = less sensitive; conditions: 48 h
Summary of the method: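 Library compounds in DMSO were applied for 48 h at 37°C at 11 threefold doses (47 μM to 0.79 nM) to medium-adapted leukemia cells in 1536-well plates holding 500 or 1000 cells/well. Luminescence from CellTiter-Glo One was normalised plate by plate against DMSO and cell-free wells. Area under the curve came from trapezoidal integration of a log-logistic fit, after scaling curves that rose above full viability and discarding those that failed quality control. The fit had four parameters and used log10 doses.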

NCc1ccc(OCCCc2sc(-c3ccc4c(c3)/C(=N/Nc3nc5ccccc5s3)CCC4)nc2C(=O)O)cc1
Conditions	AUC of viability dose-response curve, [4]	cell viability, [1] [%]	cell viability, [2] [%]
0.000781 µM	–	63.5	128
0.00234 µM	–	49.7	123
0.00702 µM	–	49	38.8
0.0211 µM	–	45.4	28.6
0.0632 µM	–	44	21.7
0.19 µM	–	52.2	12.3
0.569 µM	–	45.8	9.61
1.71 µM	–	60.9	9.66
5.12 µM	–	59.2	8.6
15.4 µM	–	53.4	7.58
46.1 µM	–	24.5	6.2
HPLM + 10% dialyzed FBS	119	–	–
RPMI 5 mM glucose + 10% FBS	187	–	–
RPMI 5 mM glucose + 10% dialyzed FBS	144	–	–

cell viability [%], [3]
Conditions	HPLM + 10% dialyzed FBS	RPMI 5 mM glucose + 10% FBS	RPMI 5 mM glucose + 10% dialyzed FBS
0.000781 µM	118	77.4	136
0.00234 µM	112	43.3	102
0.00702 µM	90.7	38.1	72.5
0.0211 µM	93.1	26	52.3
0.0632 µM	24.9	24.9	27.4
0.19 µM	27.4	23.5	32.9
0.569 µM	25.2	26.4	25
1.71 µM	28.1	26.5	30.4
5.12 µM	23.6	18.6	25.9
15.4 µM	21.6	12.7	12.7
46.1 µM	7.64	6.57	6.97
